Measurements as given in patent US20060058268A1, “Compounds and methods for treating diabetic vascular diseases” (priority 2004, published 2006).

Tested on: cells
Format: cell-based
Set-up: unit not given beside the values
Method: The plates are incubated at 37° C., 5% CO2 overnight (approximately 16 hours). The next day the plates are checked under the microscope to see if there are any visual signs of toxicity. Records are made of any cell death, debris, or morphology changes, as well as insoluble compounds (particulate or turbity).

Substance: 2,6-di-tert-butyl-4-thio(3′,5′-ditert-butyl,4′-hydroxy butanedioic acid ester)phenol
- LD50: 50
